Measurements from patent US10400022B2, “Neuropilin-1 specific binding peptide, fusion protein fused with same, and use thereof” (AJOU UNIVERSITY INDUSTRY-ACADEMIC COOPERATION FOUNDATION, priority 2015, dated 2019).

Tested on: FaDu cells
Assay: Immunohistochemistry of tumor tissue penetration of Cetuximab-TPP11
Type: in vivo, Balb/c nude mice
Settings: 1.25 mg/kg intravenously, 3 hours after injection
Procedure: At 3 hours after injection, the tumor was extracted from the mice and subjected to immunohistochemistry. The tissue was stained and observed in the same manner as described in Example 6.

Cetuximab: anti-EGFR antibody for treatment of solid tumors
tumor tissue penetration: green fluorescence was observed around the blood vessels
